Source: patent publication US20240091319A1, “DUAL-ADMINISTRATION METHODS FOR TREATING RESPIRATORY DISTRESS” (THE TRUSTEES OF THE STEVENS INSTITUTE OF TECHNOLOGY, priority 2021, published 2024)

Tests used:
adult rat lung = assay: Facilitation of dilute SURVANTA by negatively charged solutes in the adult rat lung
Method: Method 1. Surface tension determination in the isolated adult rat lung. In an isolated (excised) adult rat lung, the alveolar liquid is labeled with a fluorescent dye verified not to alter surface tension. T is determined as follows at a curved region of the alveolar air-liquid interface (e.g., the meniscus in a flooded alveolus or the corner of an aerated alveolus). Alveolar air pressure is determined with a transducer at the trachea of the constantly-inflated lung. Alveolar liquid phase pressure is determined by servo-nulling pressure measurement. The three-dimensional interfacial radius of curvature is determined by confocal microscopy. The surface tension is calculated according to the Laplace relation.
Method 2. Ventilation ‘injury score’ in the isolated adult rat lung. […] Alveolar liquid fluorescence at all time points is normalized by capillary fluorescence.
At baseline, alveolar liquid fluorescence (in flooded alveoli of experimental regions or in the liquid lining layer of control, aerated regions) is low and constant in all regions. Following ventilation, alveolar liquid fluorescence remains unchanged in aerated regions but continually increases with time in heterogeneously flooded regions. […] The increase above baseline in normalized alveolar liquid fluorescence at the last time point of the experiment is used as an injury score. […]

[1] = Surface tension in a liquid drop in vitro (Method 4); type: physicochemical
Method: Surface tension of normal saline drops (3 μl) containing 31 μM fluorescein and additional solutes as specified. The SP-C solution additionally contains 1.6% chloroform and 0.8% methanol.
Method 4. Surface tension in a liquid drop. […] The liquid pressure in the drop is determined by servo-nulling pressure measurement; the interfacial radius of curvature is determined by confocal microscopy; and the air pressure is atmospheric. Surface tension is calculated according to the Laplace relation and found to be 72±2 mN/m for normal saline, as expected.

With “albumin: the most abundant plasma protein, 66 kD; negatively charged facilitating solute” the “albumin concentrations that facilitate the surface activity of 1 vol % SURVANTA” value (adult rat lung) was 3-11 w/v %, the “optimal albumin concentration for the facilitation of 1% SURVANTA” value ([1]; 3 μl normal saline drops, FIG. 4 bars 3, 4, 5) was roughly 5% and the “extent of the albumin concentration range that facilitates 1 vol % SURVANTA in vitro” value ([1]; in vitro) was “does not extend to 10 vol % SURVANTA®”. The “facilitation of the surface activity of SURVANTA in vitro” value ([1]; in vitro) was “likewise facilitates the surface activity of SURVANTA®”.
